The values that follow are results of earlier work, collected in patent publication US20140314746A1, “METHODS FOR TREATING OR PREVENTING FIBROSIS IN SUBJECTS AFFLICTED WITH SCLERODERMA” (Philadelphia Health and Education Corporation, d/b/a Drexel …, priority 2013, published 2014).

Data set [1] has as its target T1, IL-1β (Homo sapiens, UniProt P01584). Particulars: cited from earlier work.
In data set [2] the target is T1, IL-1β. Particulars: cited from earlier work. The source holds these as a separate data set.

Consider “XOMA-052: a potent anti-IL-1β humanized neutralizing antibody”, for which, in the data set with IL-1β [1], the binding affinity is 300 femtomolar. The in vitro potency entry with IL-1β [2] is “low picomolar range”.
